From US20200297862A1, “METHODS OF USING BISPECIFIC ANTIGEN-BINDING CONSTRUCTS TARGETING HER2” (Zymeworks Inc., priority 2016, published 2020)
Read-outs that look alike come from different tables or passages of the source.

Legend:
MCF7 cells [1] = experiment: Binding to HER2+ cells by flow cytometry (FACS): Bmax and apparent KD; set-up: species or system human; conditions: for Kd: apparent KD
Experimental: (§1) The following experiment was performed to measure the ability of an exemplary biparatopic anti-HER2 antibody to bind to cells expressing varying levels of HER2 in comparison to controls. […] The ability of the biparatopic anti-HER2 antibodies to bind to the HER2 expressing (HER2+) cells was determined as described below, with specific measurement of Bmax and apparent KD (equilibrium dissociation constant).
(§2) Binding of the test antibodies to the surface of HER2+ cells was determined by flow cytometry. Cells were washed with PBS and resuspended in DMEM at 1×10^5 cells/100 μl. 100 μl cell suspension was added into each microcentrifuge tube, followed by 10 μl/tube of the antibody variants. The tubes were incubated for 2 hr 4° C. on a rotator. The microcentrifuge tubes were centrifuged for 2 min 2000 RPM at room temperature and the cell pellets washed with 500 μl media. Each cell pellet was resuspended 100 μl of fluorochrome-labelled secondary antibody diluted in media to 2 μg/sample. The samples were then incubated for 1 hr at 4° C. on a rotator. After incubation, the cells were centrifuged for 2 min at 2000 rpm and washed in media. The cells were resuspended in 500 μl media, filtered in tube containing 5 μl propidium iodide (PI) and analyzed on a BD LSR II flow cytometer according to the manufacturer's instructions. The KD of exemplary biparatopic anti-HER2 heterodimer antibody and control antibodies were assessed by FACS with data analysis and curve fitting performed in GraphPad Prism.

JIMT-1 cells [2] = experiment: as above; set-up: species or system human
Experimental: as §1, §2

SKOV3 xenograft [3] = experiment: Human ovarian cancer cell xenograft model, antibody (Example 16); format: in vivo, athymic nude mice
MCF7 cells [4] = experiment: Whole cell loading and internalization (AlexaFluor 488 labelled antibody, flow cytometry); format: cell-based, human; conditions: 200 nM labelled antibody, Table 41
JIMT-1 cells [5] = experiment: Growth inhibition of HER2+ cells (cell viability); format: cell-based, human; conditions: 300 nM antibody, 3 days; Table 11B
MCF7 cells [6] = experiment: ADCC, NK-92 effector cells E/T 5:1; format: cell-based, human; conditions: NK-92 E/T 5:1, Table 44
Experimental: (§3) The ADCC experiment was conducted as described in Example 11 with E/T: 5:1 with NK-92 effector cells. FIG. 43A and Table 43 show the ADCC results in HER2 2+ JIMT-1 breast tumor cells.

WI-38 cells = experiment: Binding to basal HER2 cells by flow cytometry (FACS); set-up: species or system human; conditions: Table 10, FIG. 6G
Experimental: as §2

SKBr3 cells [7] = experiment: Growth inhibition of HER2+ cells (cell viability); format: cell-based, human; conditions: 300 nM antibody, 3 days; Table 11B
SKOV3 xenograft [8] = experiment: Trastuzumab sensitive ovarian cancer xenograft, antibodies (Example 34); format: in vivo, athymic nude mice
JIMT-1 cells [9] = experiment: Cellular staining and location by confocal microscopy at 1, 3 and 16 h; format: cell-based, human; conditions: 200 nM antibody, 1 h, 3 h
Experimental: This experiment was performed to analyze internalization of the exemplary anti-HER2 biparatopic antibody in HER2+ JIMT-1 cells at different time points and as an orthogonal method to that presented in Example 9 to analyze whole cell loading and internalization.
Cells were gently washed two times with warmed sterile PBS ([…]/well). Cells were fixed with 250 ml of 10% formalin/PBS solution for 10 min at RT. The fixed cells were washed three times with PBS (500 μl/well), permeabilized with 250 μl/well of PBS containing 0.2% Triton X-100 for 5 min, and washed three times with 500 μl/well PBS. Cells were blocked with 500 μl/well of PBS+5% goat serum for 1 h at RT. Blocking buffer was removed, and 300 μl/well secondary antibody (Alexa Fluor 488-conjugated AffiniPure Fab Fragment Goat anti-Human IgG (H+L); Jackson ImmunoResearch Laboritories, Inc.; 109-547-003) was incubated for 1 h at RT. Cells were washed three times with 500 μl/well of PBS and the coverslips containing fixed cells were then mounted on a slide using Prolong gold anti-fade with DAPI (Life Technologies; # P36931). 60× single images were acquired using Olympus FV1000 Confocal microscope.

SKBr3 cells [10] = experiment: ADCC, NK effector cells E:T 5:1; format: cell-based, human
Experimental: (§4) Target cells were pre-incubated with test antibodies (10-fold descending concentrations from 45 μg/ml) for 30 min followed by adding effector cells with effector/target cell ratio of 5:1 and the incubation continued for 6 hours at 37° C.+5% CO2. Samples were tested with 8 concentrations, 10 fold descending from 45 μg/ml. LDH release was measured using LDH assay kit.
(§5) Dose-response studies were performed with various concentrations of the samples with a effector/target (E/T) ratios of 5:1. 3:1 and 1:1. Half maximal effective concentration (EC50) values were analyzed with the sigmoidal dose-response non-linear regression fit using GraphPad prism.
(§6) The ADCC experiments were performed as described in Example 11 with the exception that NK effector cell to target cell ratio remained constant at 5:1.

HCT-116 cells = experiment: ADCC, PBMC effector cells E/T 30:1; format: cell-based, human; conditions: PBMC E/T 30:1, FIG. 40C
Experimental: (§7) The following experiment was conducted to determine the ability of anti-HER2 biparatopic antibodies to mediate ADCC of tumor cells that express HER2 at the 2+, 1+ and/or 0/1+ levels and that coexpress EGFR and/or HER3 at the 2+ or 1+ level.
(§8) The ADCC experiment was conducted as described in Example 11 and Example 25 with E/T: 5:1 with NK-92 effector cells (FIG. 39), and as described in Example 26 with E/T 30:1 with PBMC effector cells.

NCI-N87 cells = experiment: ADCC, PBMC effector cells E/T 30:1; format: cell-based, human; conditions: PBMC E/T 30:1, FIG. 40B
Experimental: as §7, §8

JIMT-1 cells [11] = experiment: ADCC, NK effector cells E:T 5:1; format: cell-based, human
Experimental: as §4, §5, §6, §3

Substance: v5019: biparatopic anti-HER2 antibody, Fab-scFv: pertuzumab Fab (ECD2) chain A, trastuzumab scFv (ECD4) chain B, heterodimeric Fc
- Bmax (MCF7 cells [1]; Table 7, FIG. 6C): 872
- Bmax (MCF7 cells [1]; Table 8, FIG. 6F): 968
- Kd (MCF7 cells [1]; Table 7, FIG. 6C): 1.51 nM
- Kd (MCF7 cells [1]; Table 37): 6.3 nM
- Bmax (JIMT-1 cells [2]; Table 6, FIG. 6B): 7203
- Bmax (JIMT-1 cells [2]; Table 36): 4690
- Kd (JIMT-1 cells [2]; apparent KD, Table 6, FIG. 6B): 4.32 nM
- % TGI (SKOV3 xenograft [3]; Day 22): 63%
- Responders (TV < 50% of control) (SKOV3 xenograft [3]; Day 22): 11/15
- Mean TV % change from Baseline (SKOV3 xenograft [3]; Day 22, n = 15): +217%
- Mean TV (mm3) (SKOV3 xenograft [3]; Day 22, n = 15): 697 mm3
- Median Survival (SKOV3 xenograft [3]; mouse, in vivo): 61 days
- Surface 4° C. (MCF7 cells [4]; 2 h at 4° C.): 81
- Internal 37° C. (MCF7 cells [4]; 24 h at 37° C.): 134
- Surface 37° C. (MCF7 cells [4]; 24 h at 37° C.): 17
- % Survival JIMT-1 HER2 2+ (JIMT-1 cells [5]): 106%
- % Max Cell Lysis (MCF7 cells [6]): 27%
- EC50 (MCF7 cells [6]): ~0.69 nM
- Bmax (WI-38 cells): 380
- Kd (WI-38 cells; apparent KD): 7 nM
- % Survival SKBr3 HER2 3+ (SKBr3 cells [7]): 59%
- Mean TV % change from Baseline (SKOV3 xenograft [8]; Day 29): +416%
- PR (>10% baseline regression) (SKOV3 xenograft [8]; Day 29): 1/11
- Responders (TV < 50% of control) (SKOV3 xenograft [8]; Day 29): 5/11
- ZRD (TV < 20 mm3) (SKOV3 xenograft [8]; Day 29): 0/11
- Mean TV (mm3) (SKOV3 xenograft [8]; Day 29, antibodies 3 mg/kg, IgG 10 mg/kg IV twice per week): 1001 mm3
- Time to progression: Tumor doubling time (SKOV3 xenograft [8]; mouse, in vivo): 15 days
- cellular staining and location (JIMT-1 cells [9]): internalized into JIMT-1 cells at 3 h
- SICBr3 HER2 3+ Max % Target Cell Lysis (SKBr3 cells [10]; NK E:T 5:1, Table 23): 30%
- EC50 (SKBr3 cells [10]; NK E:T 5:1, Table 23, read-out: SICBr3 HER2 3+ EC50): ~0.9 nM
- maximal cell lysis (HCT-116 cells): approximately 25%
- maximal cell lysis (NCI-N87 cells): approximately 23%
- JIMT-1 HER2 2+ Max % Target Cell Lysis (JIMT-1 cells [11]; NK E:T 5:1, Table 23): 60%
- EC50 (JIMT-1 cells [11]; NK E:T 5:1, Table 23, read-out: JIMT-1 HER2 2+ EC50): 0.001 nM
- % Max Cell Lysis (JIMT-1 cells [11]; NK-92 E/T 5:1, Table 43): 47%
- EC50 (JIMT-1 cells [11]; NK-92 E/T 5:1, Table 43, read-out: EC50): ~0.16 nM
